# Binding of CDR-mutated scFvs to a peptide of the spike HR2 region

The measurements come from Li et al. 2023 (doi:10.1038/s41467-023-39022-2) through the FLAb antibody collection.

The target is the same throughout: PDVDLGDISGINAS, from the HR2 region of SARS-CoV-2 spike.

Ab-14 is the parent antibody, in scFv form: VH, then a (GGGGS)3 linker, then VL. The heavy chain is unchanged in all variants.
VH: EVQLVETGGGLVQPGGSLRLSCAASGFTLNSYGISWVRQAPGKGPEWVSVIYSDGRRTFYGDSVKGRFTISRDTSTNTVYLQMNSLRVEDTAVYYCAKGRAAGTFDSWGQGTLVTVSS
VL: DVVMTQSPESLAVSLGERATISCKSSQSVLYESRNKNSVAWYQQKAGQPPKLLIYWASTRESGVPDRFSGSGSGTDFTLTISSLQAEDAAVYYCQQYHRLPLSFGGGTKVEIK

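This is the validation round: designs drawn from the data on random variants, tested in the same kind of assay. Group labels follow the data file (Ctrl: baseline library sampled from a position-specific scoring matrix, with some repeated check sequences; En: ensemble of fine-tuned language models; GP: Gaussian process model; HC: hill climbing; Gen: genetic algorithm; Gibbs: Gibbs sampling; a sequence that several methods proposed may carry one label only). The scFvs were displayed on barcoded MATa yeast, the peptide on MATalpha yeast. Mating (16 h, 30 °C) was followed by selection of diploids and sequencing of their barcodes. A regression on co-assayed BCL2-family reference pairs converts the normalised counts of each replicate to an apparent Kd. Mating was done six times.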

The parent's light chain CDRs are KSSQSVLYESRNKNSVA, WASTRES, QQYHRLPLS; each variant's own CDRs replace them letter for letter.
The read-out is the apparent dissociation constant on a log10 scale (nM): the lower, the stronger.
An entry "ND" has no value in the source: the pair was not observed among the diploids in that replicate. This suggests poor binding but is not conclusive.
The parent sequence was in this pool as ten entries: three were never detected, three once, and four in most replicates, with averages from 0.34 to 2.37.
As a blank, each scFv also met three strains without target: over all light chain designs, 4% of these pairings were detected, typically at 2.64 and seldom below 1.59. For each scFv, signals with the empty controls are counted beside the result, with their mean in brackets.
Values of this round are not directly comparable with the first-round values of the same sequences.
The authors' rule: three or more of the six replicates give a measured affinity, fewer mean a poor binder.

CDR-L1,CDR-L2,CDR-L3,group,"log10 Kd, replicates",empty controls
MVTQLMLWGWHAKNSIA,EAQTRVN,QQYDRLPLF,En_Gen,1.48 / 1.34 / ND / ND / ND / 2.28,0/18
KSSQSVLYESRNKNGVA,WASTRES,AQYHRLPLS,Ctrl,1.33 / 0.65 / 1.00 / 0.54 / 0.82 / 0.69,2/18 (2.78)
KSSQSVLGEQRNKNSVA,SASTRES,QQYHRLPLS,GP_HC,0.67 / 0.55 / 0.50 / 0.45 / 0.57 / 0.59,2/18 (1.94)
HFDQTEQEGIQDKNSVA,QGSVVAS,QHYSKLPLS,En_Gibbs,0.85 / 0.90 / 0.88 / 0.72 / 0.80 / 0.77,1/18 (2.33)
KSSHSVLYESRNKNSVA,WASTRES,QQPHRLPLS,Ctrl,ND / ND / 1.68 / ND / ND / ND,0/18
VLQQSVLPESRNKNSVA,SASTRLP,QQYHRLPLS,GP_Gibbs,0.59 / 0.77 / 0.68 / 0.16 / 0.61 / 1.13,2/18 (2.64)
KLPGWQGYESRNKASVA,QASTRES,QQYHRLPLS,GP_Gibbs,0.21 / 0.45 / 0.23 / 0.41 / 0.28 / 0.36,0/18
QIFFNDFQYRIESQNIA,QASLREV,QQYARLPLV,En_Gibbs,1.02 / 0.85 / 0.75 / 0.81 / 1.49 / 0.89,0/18
KFSQSELYESRNKNSVA,DASQRES,QQYHRLPLS,GP_Gen,0.15 / -0.12 / -0.07 / -0.04 / 0.05 / 0.35,2/18 (2.55)
KLDQGKLYESRNKNSVA,GASTRES,QQYHRLPLS,GP_HC,0.29 / 0.42 / 0.16 / -0.05 / -0.07 / 0.12,0/18
KSSQSWLYESRNKNAVA,GASTREN,QQYHRLPLS,GP_HC,0.47 / 0.36 / -0.03 / -0.20 / 0.17 / 0.21,1/18 (2.60)
HSSPSVLYESRNKNSVA,NASTREA,QQYHRLPLQ,GP_HC,0.21 / 0.24 / 0.06 / 0.10 / 0.12 / 0.41,0/18
KSSISYLYESRNTNSVA,EASTREE,QQYHRLPLS,GP_HC,1.18 / 0.78 / 0.51 / 0.23 / 0.43 / 0.26,0/18
KLSQSQEYESRNKNSVA,DAQQRES,QQYHRLPLS,GP_Gibbs,0.16 / 0.02 / -0.06 / 0.10 / -0.11 / 0.17,2/18 (3.56)
MISQILNMGSFAINSVA,QASLRNE,QQYDRLPLT,En_Gen,ND / ND / ND / ND / ND / ND,0/18

Continued, with the values leading:

"log10 Kd, replicates",empty controls,CDR-L1,CDR-L2,CDR-L3,group
0.32 / 0.07 / -0.08 / 0.03 / -0.04 / 0.18,0/18,KLSQSVLYESRNKASVA,EASTRES,QQYHRLPLS,GP_Gen
0.26 / 0.35 / 0.29 / 0.15 / 0.38 / 0.37,2/18 (2.32),KSSISVLYESANSNSVA,EASTRES,QQYHRLPLS,Ctrl
0.15 / 0.16 / 0.09 / 0.20 / 0.09 / 0.26,1/18 (1.84),KLSQSDLYESRNKNSVA,NASYRES,QQYHRLPLS,GP_Gen
0.02 / -0.11 / -0.30 / -0.25 / -0.36 / -0.02,1/18 (4.29),KFSQSWLYESRNKNSVA,NASTRES,QQYHRLPLM,GP_Gen
ND / ND / ND / ND / ND / ND,2/18 (2.38),KLSQSVLNESNNKNSVA,WASTRES,QQYHRLHLS,Ctrl
0.78 / 0.64 / 0.56 / 0.64 / 0.30 / 1.05,1/18 (2.28),HSNGNLVMGERNKNHVA,STDVRAS,QQYSRLPLT,En_Gibbs
0.83 / 1.98 / 1.24 / 1.06 / 0.84 / 1.05,0/18,HISYSMAHLSKNKNSVA,NQQTREA,QQYHRLPLS,En_HC
-0.14 / 0.01 / -0.22 / -0.09 / -0.12 / -0.32,0/18,KFSQSVLYESRNKNSVA,EASQRES,QQYHRLPLS,GP_Gen
0.81 / 0.77 / 0.62 / 0.87 / 0.74 / 0.61,4/18 (2.84),SMIPFDNAIGKGTNNIA,HVSVRAS,QQYARLPLV,En_Gibbs
2.02 / 1.12 / 1.13 / 1.56 / 1.35 / 1.76,2/18 (3.16),KLSQSVLYESRNKNSVA,WASTRTS,QQYAILPLS,Ctrl
ND / ND / ND / ND / ND / ND,0/18,KSSQSVLYESRNKNSVA,YASTRES,QVYHRLPLE,Ctrl
ND / ND / 2.33 / 2.35 / ND / ND,0/18,IVSQLMIWGMHVKNSIA,EAQTRIN,QQYDRLPLF,En_Gen
2.28 / 1.90 / 2.05 / 2.30 / 2.13 / 1.77,0/18,KLYDEATSRVQTAENIA,EKTESLQ,QQYHRLPLS,En_Gibbs
0.59 / 1.33 / 0.50 / 0.72 / 0.75 / 1.11,0/18,KISQMFNVGTKATNSLA,EMNTRGM,QDYHRLPLS,En_HC
1.14 / 1.19 / 1.10 / 1.39 / 0.91 / 1.05,0/18,MFSQLTYMGSRARNAVA,QAETRVN,QQYHHLPLI,En_HC